Reference: ChEMBL document CHEMBL2177099, “Discovery of 1-[4-(N-benzylamino)phenyl]-3-phenylurea derivatives as non-peptidic selective SUMO-sentrin specific protease (SENP)1 inhibitors” (Bioorg Med Chem Lett, 2012)

Target: T1, Sentrin-specific protease 1 (Homo sapiens) (UniProt Q9P0U3)
T1 sequence (whole entry): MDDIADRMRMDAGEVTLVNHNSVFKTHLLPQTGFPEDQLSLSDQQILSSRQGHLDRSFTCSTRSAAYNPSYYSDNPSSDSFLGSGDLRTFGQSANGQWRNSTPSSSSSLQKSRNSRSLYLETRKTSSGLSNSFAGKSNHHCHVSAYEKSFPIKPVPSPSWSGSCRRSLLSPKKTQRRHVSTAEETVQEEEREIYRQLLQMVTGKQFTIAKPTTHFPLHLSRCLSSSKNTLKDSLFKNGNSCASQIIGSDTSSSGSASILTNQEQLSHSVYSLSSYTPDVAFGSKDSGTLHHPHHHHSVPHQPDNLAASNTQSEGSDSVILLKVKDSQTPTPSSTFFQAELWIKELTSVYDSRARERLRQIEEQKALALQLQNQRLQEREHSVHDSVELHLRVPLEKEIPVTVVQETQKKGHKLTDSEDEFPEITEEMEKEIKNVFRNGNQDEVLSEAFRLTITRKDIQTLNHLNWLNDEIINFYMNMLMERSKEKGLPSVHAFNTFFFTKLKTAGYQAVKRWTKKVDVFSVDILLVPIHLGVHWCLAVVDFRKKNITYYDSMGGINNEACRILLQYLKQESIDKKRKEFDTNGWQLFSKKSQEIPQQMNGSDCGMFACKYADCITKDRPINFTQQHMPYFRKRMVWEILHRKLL
Assay: Binding affinity to SENP1 in human HeLa cells after 1 hr by affinity chromatography/Western blot analysis
Assay type: cell-based

| Compound | Activity |
| --- | --- |
| O=C(O)CCCCCNC(=O)CCCCCNC(=O)CCC[C@@H]1SC[C@@H]2NC(=O)N[C@@H]21 | inactive |
| COC(=O)c1cccc(CNc2ccc(NC(=O)Nc3ccc(NC(=O)CCCCCNC(=O)CCCCCNC(=O)CCC[C@@H]4SC[C@@H]5NC(=O)N[C@@H]54)cc3)cc2)c1 | Active |

Calls of active or inactive are those of the source. The calls are words filed in the database; no cut-off is given here.
